## Apparent affinities of Ab-95 variants for a coronavirus HR2 peptide

The measurements come from Engelhart et al. 2022 (doi:10.1038/s41597-022-01779-4) through the FLAb antibody collection.

Target peptide (SARS-CoV-2 spike, HR2 region): PDVDLGDISGINAS

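The starting antibody came from a phage panning campaign against this peptide. Library AAYL52 holds single substitutions and randomly drawn double and triple substitutions in the CDRs. The scFvs were displayed on barcoded MATa yeast, the peptide on MATalpha yeast. Mating (16 h, 30 °C) was followed by selection of diploids and sequencing of their barcodes. Scores were corrected for input abundance and mapped to Kd with protein pairs of known affinity run in the same pool. There are three technical replicates.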

Parent: Ab-95, a human scFv built as VH, a 15-residue (Gly4Ser)3 linker, VL. Only the CDRs of the light chain vary.
VH: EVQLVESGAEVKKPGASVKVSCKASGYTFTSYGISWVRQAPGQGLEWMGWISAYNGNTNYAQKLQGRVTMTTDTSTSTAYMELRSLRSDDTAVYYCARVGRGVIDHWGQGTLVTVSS
VL: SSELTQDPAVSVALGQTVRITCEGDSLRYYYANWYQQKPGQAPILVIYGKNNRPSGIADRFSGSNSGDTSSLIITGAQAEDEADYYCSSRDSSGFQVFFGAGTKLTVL

The parent's light chain CDRs are EGDSLRYYYAN, GKNNRPS, SSRDSSGFQVF; each variant's own CDRs replace them letter for letter. The read-out is the apparent dissociation constant on a log10 scale (nM): the lower, the stronger. Averages over replicates are reported, and they cover detected replicates only. An entry "n.d." has no value in the source: the pair was not observed among the diploids in that replicate. This suggests poor binding but is not conclusive. Entries are sorted by rising average, undetected variants last. In this assay the parent's reference entry averaged 2.31; its copy inside this library read 2.25.

{"CDR-L1": "EGDSLRYEYAN", "CDR-L2": "GKNGRPS", "CDR-L3": "SSRDSSEFQVF", "replicates, log10 nM": "1.59 1.51 1.23", "mean log10 Kd (nM)": "1.44"}
{"CDR-L1": "EGDSLRYYLAN", "CDR-L2": "GENNRPS", "CDR-L3": "SSRDKSGFQVF", "replicates, log10 nM": "2.19 1.88 1.67", "mean log10 Kd (nM)": "1.91"}
{"CDR-L1": "EGKSLRYYYAN", "CDR-L2": "GKNNRMS", "CDR-L3": "SSRDSSNFQVF", "replicates, log10 nM": "2.37 3.05 2.17", "mean log10 Kd (nM)": "2.53"}
{"CDR-L1": "KGDYLRYYYAN", "CDR-L2": "GKNNRPC", "CDR-L3": "SSRDSSGFQVF", "replicates, log10 nM": "2.27 2.75 2.97", "mean log10 Kd (nM)": "2.66"}
{"CDR-L1": "EGDSLRFYYAN", "CDR-L2": "GKNNRPS", "CDR-L3": "RSRDSSGFWVF", "replicates, log10 nM": "2.97 2.52 3.03", "mean log10 Kd (nM)": "2.84"}
{"CDR-L1": "EGDILRYYYAN", "CDR-L2": "GKNNRPS", "CDR-L3": "SSRDSSGFQPF", "replicates, log10 nM": "2.85 n.d. n.d.", "mean log10 Kd (nM)": "2.85"}
{"CDR-L1": "EGDSLRMYYAN", "CDR-L2": "GKNNRPS", "CDR-L3": "SSDDSSGFQWF", "replicates, log10 nM": "2.68 3.12 2.93", "mean log10 Kd (nM)": "2.91"}
{"CDR-L1": "EGDSLRYYKAN", "CDR-L2": "GKNNRPS", "CDR-L3": "SSVWSSGFQVF", "replicates, log10 nM": "2.87 3.60 2.70", "mean log10 Kd (nM)": "3.06"}
{"CDR-L1": "EGDSLRYYYAN", "CDR-L2": "GSNNRPS", "CDR-L3": "DSKDSSGFQVF", "replicates, log10 nM": "3.19 2.51 3.95", "mean log10 Kd (nM)": "3.22"}
{"CDR-L1": "EGDSLRYYYAN", "CDR-L2": "GKNNRPS", "CDR-L3": "SGRDSSLFQVF", "replicates, log10 nM": "2.97 3.49 3.39", "mean log10 Kd (nM)": "3.28"}
{"CDR-L1": "EGTSLRYYYAN", "CDR-L2": "GKNNRPS", "CDR-L3": "SSRDSMGFQQF", "replicates, log10 nM": "3.43 3.21 n.d.", "mean log10 Kd (nM)": "3.32"}
{"CDR-L1": "EGDSLVFYYAN", "CDR-L2": "GKNNRPS", "CDR-L3": "SSPDSSGFQVF", "replicates, log10 nM": "3.42 n.d. n.d.", "mean log10 Kd (nM)": "3.42"}
{"CDR-L1": "EGDSLRYYYAD", "CDR-L2": "GENNRPS", "CDR-L3": "SSRDSSGFQVF", "replicates, log10 nM": "3.22 3.33 3.79", "mean log10 Kd (nM)": "3.45"}
{"CDR-L1": "EGDELRMYYAN", "CDR-L2": "GKNNRPI", "CDR-L3": "SSRDSSGFQVF", "replicates, log10 nM": "4.12 3.97 2.77", "mean log10 Kd (nM)": "3.62"}
{"CDR-L1": "EGDSLRYYYAN", "CDR-L2": "SKNNRPS", "CDR-L3": "SSVDSSGFQLF", "replicates, log10 nM": "n.d. 3.92 3.46", "mean log10 Kd (nM)": "3.69"}
{"CDR-L1": "EGDSLWYYYAN", "CDR-L2": "EKNNRPS", "CDR-L3": "SSRDSSGFQVS", "replicates, log10 nM": "3.59 4.78 2.87", "mean log10 Kd (nM)": "3.75"}
{"CDR-L1": "EGDSLRYYYAN", "CDR-L2": "GKNNKPS", "CDR-L3": "SSRSSSPFQVF", "replicates, log10 nM": "4.62 3.08 3.63", "mean log10 Kd (nM)": "3.78"}
{"CDR-L1": "EGDSLDYYYAN", "CDR-L2": "GKWNRKS", "CDR-L3": "SSRDSSGFQVF", "replicates, log10 nM": "4.66 3.20 n.d.", "mean log10 Kd (nM)": "3.93"}
{"CDR-L1": "EGDSLRYYYAN", "CDR-L2": "CKNNRPS", "CDR-L3": "SSRVSSGFSVF", "replicates, log10 nM": "5.23 4.15 2.62", "mean log10 Kd (nM)": "4.00"}
{"CDR-L1": "EGDSKRYYYAN", "CDR-L2": "GKHNRPS", "CDR-L3": "SSRDSSGFRVF", "replicates, log10 nM": "3.80 4.43 3.84", "mean log10 Kd (nM)": "4.02"}
{"CDR-L1": "EGESLKYYYAV", "CDR-L2": "GKNNRPS", "CDR-L3": "SSRDSSGFQVF", "replicates, log10 nM": "4.01 n.d. 4.35", "mean log10 Kd (nM)": "4.18"}
{"CDR-L1": "EGDSLRYYYAN", "CDR-L2": "NKNNRPS", "CDR-L3": "SSRDSLGFQVF", "replicates, log10 nM": "3.66 4.64 4.30", "mean log10 Kd (nM)": "4.20"}
{"CDR-L1": "EGDSLRYYYAN", "CDR-L2": "GKQNVPS", "CDR-L3": "SSRDSSGFSVF", "replicates, log10 nM": "3.51 5.44 n.d.", "mean log10 Kd (nM)": "4.48"}
{"CDR-L1": "EGDSLRYYMAN", "CDR-L2": "KKNNRPS", "CDR-L3": "SSYDSSGFQVF", "replicates, log10 nM": "n.d. 4.57 n.d.", "mean log10 Kd (nM)": "4.57"}
{"CDR-L1": "EGDSLRYYYAN", "CDR-L2": "GKWNEPS", "CDR-L3": "SSRDSSNFQVF", "replicates, log10 nM": "5.31 n.d. 4.10", "mean log10 Kd (nM)": "4.71"}
{"CDR-L1": "EGDSLRYYYLN", "CDR-L2": "GKHNRPS", "CDR-L3": "SSRDSKGFQVF", "replicates, log10 nM": "n.d. 5.80 n.d.", "mean log10 Kd (nM)": "5.80"}
{"CDR-L1": "EGDSRRYYYAN", "CDR-L2": "GSNNRPS", "CDR-L3": "SSRDSSGFQVF", "replicates, log10 nM": "n.d. n.d. n.d.", "mean log10 Kd (nM)": "n.d."}
{"CDR-L1": "EVDSLRYYYFN", "CDR-L2": "GKNNRPS", "CDR-L3": "SSRDSHGFQVF", "replicates, log10 nM": "n.d. n.d. n.d.", "mean log10 Kd (nM)": "n.d."}
{"CDR-L1": "EGDSGRYYYAN", "CDR-L2": "GKNNRPS", "CDR-L3": "SSHDSSGFAVF", "replicates, log10 nM": "n.d. n.d. n.d.", "mean log10 Kd (nM)": "n.d."}
{"CDR-L1": "EGDILRYYYAN", "CDR-L2": "VKNNRIS", "CDR-L3": "SSRDSSGFQVF", "replicates, log10 nM": "n.d. n.d. n.d.", "mean log10 Kd (nM)": "n.d."}

Extract of 5 entries:

CDR-L1	CDR-L2	CDR-L3	replicates, log10 nM	mean log10 Kd (nM)
EGDSLRYYKAN	GKNNRPS	SSVWSSGFQVF	2.87 3.60 2.70	3.06
EGDSLRYYYAN	GKQNVPS	SSRDSSGFSVF	3.51 5.44 n.d.	4.48
EGDSLRYYYAN	GSNNRPS	DSKDSSGFQVF	3.19 2.51 3.95	3.22
EGDSLDYYYAN	GKWNRKS	SSRDSSGFQVF	4.66 3.20 n.d.	3.93
EGDSLRYYYAN	GKNNKPS	SSRSSSPFQVF	4.62 3.08 3.63	3.78

Background: pairings of library AAYL52 with three empty control strains gave a value in 28% of cases (median 3.91, 5th percentile 2.90). Values in that range, when seen in few replicates, are hard to tell from nonspecific mating.